# Measurements published in US12686687B2, “Compounds and uses thereof” (Foghorn Therapeutics Inc., priority 2019, dated 2026).
# The chains behind the UniProt entries cited, without tags or fusion partners.
# UniProt Q9H8M2, whole entry: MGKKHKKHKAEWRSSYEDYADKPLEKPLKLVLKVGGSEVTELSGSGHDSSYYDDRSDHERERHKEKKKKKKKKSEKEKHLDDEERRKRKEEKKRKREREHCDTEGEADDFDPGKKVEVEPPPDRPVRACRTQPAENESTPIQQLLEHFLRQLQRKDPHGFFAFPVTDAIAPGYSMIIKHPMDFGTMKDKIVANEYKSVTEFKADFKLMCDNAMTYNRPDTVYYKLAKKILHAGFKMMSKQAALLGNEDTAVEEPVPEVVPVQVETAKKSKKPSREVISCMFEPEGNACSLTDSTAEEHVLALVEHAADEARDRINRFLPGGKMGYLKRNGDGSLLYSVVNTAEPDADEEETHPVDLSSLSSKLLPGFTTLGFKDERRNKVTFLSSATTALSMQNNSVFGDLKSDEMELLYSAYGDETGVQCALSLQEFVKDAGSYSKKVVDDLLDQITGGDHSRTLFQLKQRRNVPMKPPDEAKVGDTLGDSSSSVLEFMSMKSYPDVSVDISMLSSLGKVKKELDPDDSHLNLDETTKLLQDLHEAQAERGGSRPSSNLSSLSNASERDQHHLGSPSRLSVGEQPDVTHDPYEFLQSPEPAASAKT
# Read-outs that look alike come from different tables or passages of the source.
# Target: Nanoluciferase-BRD9 fusion protein (3×FLAG-NLuc-BRD9) in SYO-1 cells (Homo sapiens, UniProt Q9H8M2)
# Assay: SYO1 BRD9 NanoLuc degradation assay
# Details: read-out: SYO1 BRD9-NanoLuc degradation IC50, Table 6C, SYO-1 cells expressing 3×FLAG-NLuc-BRD9, 6 hours incubation, 1 μM top dose
IC50 [nM],Compound,other results
,COc1cc(-c2cn(C)c(=O)c3ccsc23)cc(OC)c1CN1CCN(c2ccc3c(c2)CN(C2CCC(=O)NC2=O)C3=O)CC12CCC2 (centres unmarked),IC50 (tested form: TFA): < 10 nM
> 10,COc1cc(-c2cn(C)c(=O)c3ncoc23)cc(OC)c1CN1CC(CN2CCC3(CC2)CN(c2ccc4c(c2)C(=O)N(C2CCC(=O)NC2=O)C4)C3)C1 (centres unmarked),
< 10,COc1cc(-c2cn(C)c(=O)c3occc23)cc(OC)c1CN1CCC2(CC1)CN(c1ccc3c(c1)C(=O)N(C1CCC(=O)NC1=O)C3)C2 (centres unmarked),
,COc1cc(-c2cn(C)c(=O)c3ncoc23)cc(OC)c1CN1CCC2(CC1)CN(c1ccc3c(c1)C(=O)N(C1CCC(=O)NC1=O)C3)C2 (centres unmarked),IC50 (tested form: formate): < 10 nM

Compound,IC50 [nM],other results
COc1cc(-c2cn(C)c(=O)c3ccoc23)cc(OC)c1CN1CC(CN2CCC3(CC2)CN(c2ccc4c(c2)C(=O)N(C2CCC(=O)NC2=O)C4)C3)C1 (centres unmarked),< 10,
